Data published in ChEMBL document CHEMBL4219127, “Structural design, synthesis and substituent effect of hydrazone-N-acylhydrazones reveal potent immunomodulatory agents” (Bioorg Med Chem, 2018).

How the values were obtained:
J774 [1] = experiment: Cytotoxicity against BALB/c mouse J774 cells assessed as reduction in cell viability after 72 hrs by alamarBlue assay; type: cell-based; settings: j774, 72 h, strain BALB/c
Splenocyte [2] = experiment: Immunomodulatory activity in BALB/c mouse splenocytes assessed as inhibition of concanavalin A-induced lymphocyte proliferation by measuring [3H]-thymidine uptake after 48 to 72 hrs by scintillation counting analysis; settings: strain BALB/c
Splenocyte [3] = experiment: Cytotoxicity against BALB/c mouse splenocytes assessed as reduction in cell viability up to 12 uM
J774 [4] = experiment: Cytotoxicity against BALB/c mouse J774 cells assessed as reduction in cell viability up to 12 uM after 72 hrs by alamarBlue assay; settings: j774, 72 h, strain BALB/c

CC(/C=N/Nc1ccc([N+](=O)[O-])cc1)=N\NC(=O)c1cc([N+](=O)[O-])cc([N+](=O)[O-])c1
CC50 (J774 [1]): 17.8 µM
IC50 (Splenocyte [2]): 0.27 µM
Activity (Splenocyte [3]): Non-Toxic
Activity (J774 [4]): Non-Toxic
